# Test results: publication PMC6252132 (Bioorganic & medicinal chemistry, 2018)
# Experiments:
# [1] = tested on: p38 T180/Y182 phosphorylation in 3T3-L1 adipocytes
# [2] = tested on: IL-6 secretion from 3T3-L1 adipocytes
# [3] = tested on: pTBK1 S172 in 3T3-L1 adipocytes
SMILES,p38 T180/Y182 phosphorylation normalized to the response to amlexanox (5) [1],IL-6 secretion normalized to the response to amlexanox (5) [2],pTBK1 S172 phosphorylation normalized to the response to amlexanox (5) [3]
"Nc1nc2oc3ccc(C4CCCCC4)cc3c(=O)c2cc1-c1nn[nH]n1 [compound 168, 2-Amino-7-cyclohexyl-3-(1H-tetrazol-5-yl)-5H-chromeno[2,3-b]pyridine-5-one]",0.49,,
"Nc1nc2oc3ccc(C4=CCCCC4)cc3c(=O)c2cc1-c1nn[nH]n1 [compound 169, 2-Amino-7-(cyclohex-1-en-1-yl)-3-(1H-tetrazol-5-yl)-5H-chromeno[2,3-b]pyridine-5-one]",0.10,0.00,
"CN(C)c1ccc2oc3nc(N)c(-c4nn[nH]n4)cc3c(=O)c2c1 [compound 170, 2-Amino-7-(dimethylamino)-3-(1H-tetrazol-5-yl)-5H-chromeno[2,3-b]pyridin-5-one]",0.00,0.03,
"Nc1nc2oc3ccc(N4CCOCC4)cc3c(=O)c2cc1-c1nn[nH]n1 [compound 171, 2-Amino-7-morpholino-3-(1H-tetrazol-5-yl)-5H-chromeno[2,3-b]pyridine-5-one]",0.70,0.54,0.39
